Results published in US20230346272A1 (priority 2021, published 2023).

Assay: DPV with microneedle sensor array, buprenorphine and norbuprenorphine (FIGS. 11A-11C)
Conditions: applied voltages from -0.2 to 1.0V

CO[C@]12CC[C@@]3(C[C@@H]1[C@](C)(O)C(C)(C)C)[C@H]1Cc4ccc(O)c5c4[C@@]3(CCN1)[C@H]2O5
voltage of current peak (DPV), both substances together (1 μg/ml buprenorphine and 1 μg/ml norbuprenorphine together): 0.29 V | voltage of measured current peak (DPV), substance alone (1 μg/ml, single substance, against unmedicated baseline): about 0.27 V
